Reference: ChEMBL document CHEMBL1133297, “Synthesis and erythropoietin receptor binding affinities of N,N-disubstituted amino acids” (Bioorg Med Chem Lett, 2000)

target: T1, Erythropoietin receptor (Homo sapiens, UniProt P19235); test: Compound was evaluated for inhibition of [125I]-EPO binding to Erythropoietin receptor (EBP)
T1 sequence (P19235 whole entry): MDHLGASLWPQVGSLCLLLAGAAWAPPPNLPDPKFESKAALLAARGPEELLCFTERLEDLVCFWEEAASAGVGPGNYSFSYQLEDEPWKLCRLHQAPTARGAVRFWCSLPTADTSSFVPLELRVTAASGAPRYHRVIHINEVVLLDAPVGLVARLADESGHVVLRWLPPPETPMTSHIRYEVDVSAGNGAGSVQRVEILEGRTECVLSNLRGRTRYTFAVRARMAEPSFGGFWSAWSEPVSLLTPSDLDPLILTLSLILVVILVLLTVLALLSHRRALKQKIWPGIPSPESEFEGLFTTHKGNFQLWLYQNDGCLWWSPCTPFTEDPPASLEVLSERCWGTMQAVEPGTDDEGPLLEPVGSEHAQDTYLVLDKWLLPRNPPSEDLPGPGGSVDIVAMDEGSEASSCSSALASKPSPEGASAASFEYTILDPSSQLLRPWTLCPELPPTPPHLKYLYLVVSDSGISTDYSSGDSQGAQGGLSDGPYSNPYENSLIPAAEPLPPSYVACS

Question: How did the IC50 turn out when `O=C(O)CC[C@H](C(=O)NCCOCCOCCNC(=O)[C@H](CCC(=O)O)N(Cc1ccc(OCc2ccccc2)cc1)Cc1ccc(OCc2ccccc2)cc1)N(Cc1ccc(OCc2ccccc2)cc1)Cc1ccc(OCc2ccccc2)cc1` was run?
Answer: 75 µM

Question: With `O=C(O)C[C@@H](C(=O)O)N(C/C=C/c1cccc(Oc2ccccc2)c1)C/C=C/c1cccc(Oc2ccccc2)c1` as the molecule, how does the IC50 read?
Answer: 36 µM

Question: With `COC(=O)[C@H](CCCCN)N(Cc1ccc(OCc2ccccc2)cc1)Cc1ccc(OCc2ccccc2)cc1` as the molecule, how does the IC50 read?
Answer: 10 µM
